Target: GST-Bcl-2 (Homo sapiens (Human), UniProt P10415)
Test: Time Resolved-Fluorescence Resonance Energy Transfer (TR-FRET) Bcl-2 binding assay
Conditions: F-Bak peptide probe 100 nM, GST-Bcl-2 1 nM, Tb-anti-GST 1 nM; Wang's equation
Method: Determination of the utility of compounds having Formula (I) as binders to and inhibitors of anti-apoptotic Bcl-2 proteins was performed using the Time Resolved-Fluorescence Resonance Energy Transfer (TR-FRET) Assay. Tb-anti-GST antibody was purchased from Invitrogen (Catalog No. PV4216). Representative compounds were serially diluted in dimethyl sulfoxide (DMSO) starting at 50 μM (2× starting concentration; 10% DMSO) and 10 μL were transferred into a 384-well plate. […] For each assay, the probe/antibody and protein/probe/antibody were included on each assay plate as negative and positive controls, respectively. Fluorescence was measured on the ENVISION plate reader (Perkin Elmer) using a 340/35 nm excitation filter and 520/525 (F-Bak peptide) and 495/510 nm (Tb-labeled anti-Histidine antibody) emission filters. Inhibition constants (Ki) are shown in TABLE 2 below and were determined using Wang's equation (Wang Z.-X. An Exact Mathematical Expression For Describing Competitive Binding Of Two Different Ligands To A Protein Molecule. FEBS Lett. 1995, 360:111-4).

By UniProt entry, the sequences of proteins in these tests, tags left out.
UniProt P10415, whole entry: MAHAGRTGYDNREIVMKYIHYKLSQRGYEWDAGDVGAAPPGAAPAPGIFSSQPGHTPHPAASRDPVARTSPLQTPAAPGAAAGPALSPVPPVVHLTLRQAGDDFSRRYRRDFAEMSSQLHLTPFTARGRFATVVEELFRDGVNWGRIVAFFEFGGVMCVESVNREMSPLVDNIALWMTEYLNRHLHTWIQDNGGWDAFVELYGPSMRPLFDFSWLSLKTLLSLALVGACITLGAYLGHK

Substance | Ki [nM]
(5-{5-(4-{[2-(4-chlorophenyl)-4,4-dimethylcyclohex-1-en-1-yl]methyl}piperazin-1-yl)-2-[({4-[(4-fluorotetrahydro-2H-pyran-4-yl)methoxy]-3-nitrophenyl}sulfonyl)carbamoyl]phenoxy}-7H-pyrrolo[2,3-b]pyridin-7-yl)methyl dihydrogen phosphate [Example 3] | < 0.01
trans-4-[(4-{[4-(4-{[2-(4-chlorophenyl)-4,4-dimethylcyclohex-1-en-1-yl]methyl}piperazin-1-yl)-2-(1H-pyrrolo[2,3-b]pyridin-5-yloxy)benzoyl]sulfamoyl}-2-nitrophenoxy)methyl]cyclohexyl dihydrogen phosphate [Example 5] | < 0.01
